Data on one substance can be found in patent US20140212436A1.

Chains of the proteins cited; added tags and fusions are not shown. A line that says so, or that is headed by a name, gives the form on record, which may keep a tag or linker.
UniProt P01854, other isoform, or with tags, fused parts or gaps: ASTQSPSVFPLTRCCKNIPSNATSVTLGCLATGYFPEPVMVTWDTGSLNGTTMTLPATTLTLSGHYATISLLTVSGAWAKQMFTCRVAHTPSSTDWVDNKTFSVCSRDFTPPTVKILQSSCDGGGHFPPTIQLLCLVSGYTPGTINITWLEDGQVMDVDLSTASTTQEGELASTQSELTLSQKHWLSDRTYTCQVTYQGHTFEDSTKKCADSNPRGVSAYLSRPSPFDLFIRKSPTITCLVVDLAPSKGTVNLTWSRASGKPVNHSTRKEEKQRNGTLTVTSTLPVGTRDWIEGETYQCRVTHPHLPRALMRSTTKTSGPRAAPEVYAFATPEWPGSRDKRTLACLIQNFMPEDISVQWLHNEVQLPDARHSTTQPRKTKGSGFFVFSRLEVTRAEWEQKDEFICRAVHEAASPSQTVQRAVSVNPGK

The target in the experiment is IgE (from a human IgE ELISA kit, Bethyl Laboratories) (human) (UniProt P01854). As to the kind of experiment: sandwich ELISA, antibody coated as capture; the concentration is that of IgE.

Omalizumab_IgG1_G236R/L328R (antibody): the EC50 (read off the curve) amounted to 0.04 µg/mL.
